# Compounds with a hit are over-represented: about 1.8% of the library has one in this group of screens.
# Cneo AK release: Cryptococcus neoformans lysis via adenylate kinase release | lysis activity, % at 15 µM | C. neoformans lysis, adenylate kinase release luminescence, 4 h; normalised: neutral wells 0, clomiphene wells 100 | hit rate 0.2% among 360,000;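 active = mean lysis activity across replicates of at least 80%, whatever share of replicates individually reach that level; inactive = mean lysis activity below 80%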
#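 Material – log-phase Cryptococcus neoformans yeast cells · Input – 5 × 10^6 yeast cells/mL · Medium – fresh YPD growth medium · Doses – single compound concentration per well · Timing – static 4 h at 37 °C with compound, 1 h detection · Detection – adenylate kinase release luminescence · Read-out – signal increase indicating cell lysis · Control set – Clomiphene as positive lysis control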
# E-selectin induc: induces E-selectin expression in human endothelial cells; P16581; HUVEC E-selectin immunofluorescence imaging; normalized: neutral wells 0, TNF-alpha wells 100; activation, % at 7.58 µM; hit rate 0.37% among 260,000;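 active = mean E-selectin-positive cell signal at least 10% of the positive control, reached in at least 60% of replicates, without over 20% cell loss; inconclusive = no rule given, readout overlaps actives, possibly toxicity-flagged; inactive = the rest, including those meeting only one limit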
#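 Assay system: HUVEC, human umbilical vein endothelial cells / Amount: 3,000 HUVEC/well / Controls: TNF-alpha positive control, DMSO neutral control / Compound dosing: single concentration / Medium: EGM-2 over gelatin coat / Evaluation: percent E-selectin-positive cells / Signal: immunofluorescence imaging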
# DENV2 CPE: protects cells from dengue virus 2 cytopathic effect; DENV2-infected cells, cytopathic effect rescue, plate reader; CPE inhibition, % at 9.99 µM; hit rate 1.7% among 350,000; in the data active = CPE inhibition above about 20%, passing the limit was not always enough; inconclusive = no clear call, values can overlap the other calls; tested in BHK-21 cells;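 note: 0% = median of neutral control wells and 100% = median of positive control wells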
# UUG fidelity: yeast start codon fidelity modulation; actives 0.13% (n = 350,000); activity score, % at 18.7 µM; S. cerevisiae UUG-firefly luciferase reporter, luminescence/redox ratio;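 active = replicate mean at a twofold rise or more, about +100% in these data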;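 note: firefly luciferase made from a UUG start codon reports start codon fidelity; reporter light over untreated wells divided by growth signal over untreated wells; some hits fall short of that in this replicate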
# Active calls of the source: *; ? = inconclusive; / = no result.
mol,Cneo AK release,E-selectin induc,UUG fidelity,DENV2 CPE
CO[C@H]1CN(C)C(=O)c2ccc(NC(=O)C3CCOCC3)cc2OC[C@H](C)N(CC2CC2)C[C@H]1C,1,0,-3,2
CCN1CCN(Cc2ccc(NC(=O)c3ccc(C)c(NC(=O)c4nccn4C)c3)cc2C(F)(F)F)CC1,0,0,-9,-23
CCN1CCN(Cc2ccc(NC(=O)c3ccc(C)c(NC(=O)c4cc(-c5ccc(Br)cc5)n[nH]4)c3)cc2C(F)(F)F)CC1,-1,1,-6,36*
COc1cccc(S(=O)(=O)N2CC3(CN(C(=O)Nc4ccc(F)cc4)[C@H](CO)c4[nH]c5cc(OC)ccc5c43)C2)c1,/,0,/,128*
COc1ccc2c3c([nH]c2c1)[C@@H](CO)N(C(=O)Nc1ccccc1F)CC31CCN(C(C)=O)CC1,/,0,/,-3
COCC(=O)N1CCC2(CC1)CN(C(=O)Nc1ccccc1F)[C@H](CO)c1[nH]c3cc(OC)ccc3c12,/,0,/,25*
CCCC(=O)N1CC2(C1)CN(C(=O)C1CCC1)[C@@H](CO)c1[nH]c3cc(OC)ccc3c12,/,0,/,13
CCCC(=O)N1CC2(C1)CN(C(=O)C1CCCCC1)[C@@H](CO)c1[nH]c3cc(OC)ccc3c12,/,0,/,22*
COc1ccc2c3c([nH]c2c1)[C@@H](CO)N(C(=O)C1CCOCC1)CC31CN(C)C1,/,0,/,90*
C[C@@H]1CN([C@H](C)CO)C(=O)Cc2cc(NC(=O)CCN3CCOCC3)ccc2O[C@@H]1CN(C)C(=O)Nc1cccc2ccccc12,-1,0,11,6
C[C@@H]1CN([C@@H](C)CO)C(=O)Cc2cc(NS(=O)(=O)c3ccc(Cl)cc3)ccc2O[C@H]1CN(C)S(=O)(=O)c1ccccc1,3,0,-5,-8
C[C@@H]1CN([C@H](C)CO)C(=O)c2cc(C#CC3CCCC3)cnc2O[C@@H]1CN(C)Cc1ccncc1,7,-4,-13,-9
CCCC(=O)N1CCC2(CC1)CN(C(=O)C1CCCC1)[C@@H](CO)c1[nH]c3cc(OC)ccc3c12,/,0,/,-10
COc1ccc2c3c([nH]c2c1)[C@H](CO)N(C(=O)C1CC1)CC31CN(C(=O)NC(C)C)C1,/,0,/,30*
CCCC(=O)N1CCC2(CC1)CN(C(=O)C1CC1)[C@H](CO)c1[nH]c3cc(OC)ccc3c12,/,0,/,34*
COc1ccccc1C(=O)N1[C@@H](C(C)C)COc2cc(Br)ccc2S1(=O)=O,15,0,-14,78*
CSc1nc(Cl)c(Br)c(Nc2c[nH]c(=O)[nH]c2=O)n1,-1,0,-13,52*
COc1ccc(Nc2c[nH]c(=O)[nH]c2=O)cc1,-1,3,-12,-2
N#C[C@H]1[C@@H](c2ccc(/C=C/c3ccccc3)cc2)[C@@H](CO)N1C(=O)C1CCCC1,0,2,-33,5
N#C[C@@H]1[C@H](c2ccc(C#Cc3ccccc3F)cc2)[C@@H](CO)N1C(=O)C1CCC1,-16,0,-17,-8
N#C[C@@H]1[C@@H](c2ccc(C#Cc3ccc(F)cc3)cc2)[C@H](CO)N1C(=O)C1CCCC1,-4,0,0,23*
N#C[C@@H]1[C@@H](c2ccc(C#Cc3ccccc3F)cc2)[C@H](CO)N1C(=O)C1CCC1,2,0,2,30*
N#C[C@@H]1[C@@H](c2ccc(/C=C/c3ccccc3)cc2)[C@@H](CO)N1C(=O)C1CCCC1,8,1,-19,26*
Cc1noc(C)c1NC(=O)N(C)C[C@@H]1OCCCC[C@H](C)Oc2ccc(NC(=O)c3ccccc3)cc2C(=O)N([C@H](C)CO)C[C@@H]1C,24,0,-3,-4
O=C(c1cccc(-c2ccc(O)cc2)c1)N1CCOCC1,-3,/,-11,/

# Entries shown so far that contain a Cl atom, in the order listed:
mol,Cneo AK release,E-selectin induc,UUG fidelity,DENV2 CPE
C[C@@H]1CN([C@@H](C)CO)C(=O)Cc2cc(NS(=O)(=O)c3ccc(Cl)cc3)ccc2O[C@H]1CN(C)S(=O)(=O)c1ccccc1,3,0,-5,-8
CSc1nc(Cl)c(Br)c(Nc2c[nH]c(=O)[nH]c2=O)n1,-1,0,-13,52*

# Arranged by value in DENV2 CPE (rising): 3 of the compounds above
structure | UUG fidelity | DENV2 CPE
COc1ccc(Nc2c[nH]c(=O)[nH]c2=O)cc1 | -12 | -2
CO[C@H]1CN(C)C(=O)c2ccc(NC(=O)C3CCOCC3)cc2OC[C@H](C)N(CC2CC2)C[C@H]1C | -3 | 2
N#C[C@@H]1[C@@H](c2ccc(C#Cc3ccccc3F)cc2)[C@H](CO)N1C(=O)C1CCC1 | 2 | 30*

# The listing continues.
mol,Cneo AK release,E-selectin induc,UUG fidelity,DENV2 CPE
O=C(c1cccc(-c2cccc3nccn23)c1)N1CCOCC1,0,1,-23,33*
S=C(SSC(=S)N1CCOCC1)N1CCOCC1,/,0,/,24*
Cc1cccc([C@@H]2[C@@H]3C(=O)N(Cc4ccccc4)C(=O)[C@@H]3[C@]3(Cc4ccccc4)C(=O)N(c4ccccc4)C(=O)N23)c1,0,0,18,1
Cc1cccc([C@@H]2[C@@H]3C(=O)N(Cc4ccccc4)C(=O)[C@@H]3[C@]3(Cc4ccccc4)C(=O)N(c4ccc(C(F)(F)F)cc4)C(=O)N23)c1,7,0,-12,102*
C[C@H](CO)N1C[C@H](C)[C@H](CN(C)C(=O)NC2CCCCC2)Oc2c(NS(=O)(=O)c3ccc(F)cc3)cccc2C1=O,4,-9,5,-4
C[C@@H]1CN([C@H](C)CO)C(=O)Cc2cc(NC(=O)Nc3ccc(F)cc3)ccc2O[C@@H]1CN(C)Cc1ccc(Cl)c(Cl)c1,-15,0,10,5
CCC(=O)N1CCC2(CC1)Oc1ccc(Cl)cc1C(=O)C21CC(c2ccc(Cl)cc2)=NO1 (stereo not given),7,0,-25,90*
Clc1cccc(C2=NOC(c3nnc(-c4ccccc4)o3)C2)c1 (stereo not given),-3,0,-17,35*
CO[C@@H](CN(C)C(=O)c1cnccn1)[C@H](C)CN([C@@H](C)CO)S(=O)(=O)c1ccc(F)cc1,11,0,/,27*
COc1ccccc1-c1ccc([C@@H]2[C@H]3CN(C(=O)c4ccncc4)CCCCN3[C@H]2CO)cc1,-1,0,-3,7
O=C(C1CCOCC1)N1CC[C@@H]2[C@@H](CO)Nc3ccc(Br)cc3[C@@H]21,91*,0,29,?
CCC(=O)N1CC[C@@H]2[C@H](CO)Nc3ccc(C#Cc4ccc(F)cc4)cc3[C@@H]21,-2,59*,-6,-12
O=C(C1CC1)N1CC[C@@H]2[C@H]1c1cc(C#Cc3ccccc3F)ccc1N[C@@H]2CO,-5,0,-1,29*
O=C(C1CC1)N1CC[C@@H]2[C@H]1c1cc(C#Cc3ccc(F)cc3)ccc1N[C@@H]2CO,3,1,-13,27*
O=C(C1CCCC1)N1CC[C@@H]2[C@@H](CO)Nc3ccc(C#Cc4ccc(F)cc4)cc3[C@@H]21,/,11,/,4
O=C(C1CC1)N1CC[C@@H]2[C@H](CO)Nc3ccc(C#Cc4ccccc4F)cc3[C@@H]21,58,3,4,1
C[C@H](CO)N1C[C@H](C)[C@H](CN(C)C)Oc2cc(-c3cccnc3)ccc2S1(=O)=O,2,0,-16,-2
Cc1ccc(S(=O)(=O)Nc2cccc3c2O[C@@H](CN(C)S(C)(=O)=O)[C@@H](C)CN([C@H](C)CO)C3=O)cc1,55,0,24,4
N#Cc1ccc(-c2ccc3c(c2)[C@@H]2[C@@H](CCN2C(=O)C2CCCC2)[C@H](CO)N3)cc1,/,0,/,2
N#Cc1ccc(-c2ccc3c(c2)[C@H]2[C@H](CCN2C(=O)C2CCC2)[C@H](CO)N3)cc1,/,1,/,35*
O=C(C1CCC1)N1CC[C@@H]2[C@H](CO)Nc3ccc(C#Cc4ccc(F)cc4)cc3[C@@H]21,/,34*,/,-6
CCOC(=O)C[C@H]1c2ccccc2S(=O)(=O)N1c1ccccc1,-1,1,-10,37*

# Assay outcomes deposited in PubChem by Broad Institute.
